Assays:
[1] = biological target: T1, MBP-IKKβ (701–745) (Homo sapiens, UniProt O14920); test: MST binding assay to IKKβ; details: NEMO to IKKβ, read-out: KD for GST-NEMO (1–196)
T1 construct: made in house; host or cells: E. coli BL21(DE3)

Amino acid sequences for entries named in this document (tags omitted). Residues count along the entry.
UniProt O14920, 701-745: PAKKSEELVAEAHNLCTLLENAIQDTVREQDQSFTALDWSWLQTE

[2] = biological target: T1, MBP-IKKβ (701–745); test: SPR affinity assay on immobilized MBP-IKKβ; details: read-out: KD of GST-NEMO (1–196) binding to immobilized MBP-IKKβ (701–745)
Procedure: MBP-IKKβ was immobilized on the surface of the CM5 chip using the amine-coupling approach at a flow rate of 10 μL/min in 10 mM sodium acetate buffer (pH 5.0). The sensor surface was activated with a 7 min injection of a mixture comprising 50 mM N-hydroxysuccinimide (NHS) and 200 mM 1-ethyl-3-(3- dimethylaminopropyl) carbodiimide (EDC). Then, 33 μg/mL of IKKβ was injected to reach the target level of 500 RU and the surface was blocked with 1 M ethanolamine, pH 8.5. A series of concentrations of NEMO or SHK were injected into the flow system and analyzed for 90 or 120 s, followed by dissociation for 90 or 600 s. All binding analyses was performed in phosphate-buffered saline (PBS, pH 7.4) with 0.05% (v/v) Tween-20 at 25 °C. Prior to analysis, double reference subtractions were made to eliminate bulk refractive index changes, injection noise, and data drift. The binding affinity was determined by fitting to a Langmuir 1:1 binding model in the Biacore Evaluation software (GE Healthcare).

**Q.** “GST-NEMO (1–196): truncated GST-tagged NEMO residues 1–196 expressed in E. coli” was tested. Which Kd [1] did it give?
**A.** 209 ± 32.5 nM

**Q.** And the Kd [2]?
**A.** 261 ± 62 nM
